Data as given in patent publication US9169290B2, “Peptides and their use” (priority 2007, dated 2015).

Columns and labels:
C. krusei = type: cell-based, Candida krusei
Method: (§1) Broth Dilution Antifungal Susceptibility Testing
(§2) The sensitivity of relevant fungal strains to the peptides was determined using Clinical Laboratory Standard Institute (CLSI; formerly NCCLS) Approved Standards.

C. albicans = type: cell-based, Candida albicans
Method: as §1, §2

Malasezzia furfur = type: cell-based; details: Malasezzia furfur strain DSM6170
Method: as §1, §2

Trichophyton rubrum = type: cell-based; details: Trichophyton rubrum strain NCPF118
Method: as §1, §2

With `N=C(N)NCCC[C@H](NC(=O)[C@H](CCCNC(=N)N)NC(=O)[C@H](CCCNC(=N)N)NC(=O)[C@H](CCCNC(=N)N)NC(=O)[C@H](CCCNC(=N)N)NC(=O)[C@H](CCCNC(=N)N)NC(=O)[C@H](CCCNC(=N)N)NC(=O)[C@H](CCCNC(=N)N)NC(=O)[C@@H](N)CCCNC(=N)N)C(=O)O` [NP316, RRRRRRRRR] the MIC (C. krusei; C. krusei strain ATCC6258) was <16 µM, the MIC (C. krusei; C. krusei strain NCPF3953) was 32 µM (≈ 45.6 µg/mL) and the “MIC, Candida krusei NCPF3953” value (C. krusei; Candida spp. Type Strains MIC Data table, strain NCPF3953) was 8 µM (≈ 11.4 µg/mL). For the same compound, the “MIC, Candida albicans NCTC3179” value (C. albicans; Candida spp. Type Strains MIC Data table, strain NCTC3179) was >2000 µM, the MIC (Malasezzia furfur) was 125 µM (≈ 178 µg/mL) and the MIC (Trichophyton rubrum) was 0.5 µM (≈ 0.712 µg/mL).
With `N=C(N)NCCC[C@H](NC(=O)[C@H](CCCNC(=N)N)NC(=O)[C@H](CCCNC(=N)N)NC(=O)[C@H](CCCNC(=N)N)NC(=O)[C@H](CCCNC(=N)N)NC(=O)[C@H](CCCNC(=N)N)NC(=O)[C@H](CCCNC(=N)N)NC(=O)[C@H](CCCNC(=N)N)NC(=O)[C@@H](N)CCCNC(=N)N)C(=O)O` [NP349, RRRRRRRRR] the MIC (C. krusei; C. krusei strain NCPF3953) was 8 µM (≈ 11.4 µg/mL) and the MIC (C. albicans; C. albicans strain NCTC3179) was 2048 µM (≈ 2920 µg/mL).

≈ marks a conversion by molar mass, not a printed value. Where two headings read alike, the source gives them in different places.
